Source: patent US20160287666A1 (priority 2015, published 2016)

Amino acid sequences for entries named in this document (tags omitted). A change or cut given only in a name is not applied to a line headed by its entry.
UniProt Q15858: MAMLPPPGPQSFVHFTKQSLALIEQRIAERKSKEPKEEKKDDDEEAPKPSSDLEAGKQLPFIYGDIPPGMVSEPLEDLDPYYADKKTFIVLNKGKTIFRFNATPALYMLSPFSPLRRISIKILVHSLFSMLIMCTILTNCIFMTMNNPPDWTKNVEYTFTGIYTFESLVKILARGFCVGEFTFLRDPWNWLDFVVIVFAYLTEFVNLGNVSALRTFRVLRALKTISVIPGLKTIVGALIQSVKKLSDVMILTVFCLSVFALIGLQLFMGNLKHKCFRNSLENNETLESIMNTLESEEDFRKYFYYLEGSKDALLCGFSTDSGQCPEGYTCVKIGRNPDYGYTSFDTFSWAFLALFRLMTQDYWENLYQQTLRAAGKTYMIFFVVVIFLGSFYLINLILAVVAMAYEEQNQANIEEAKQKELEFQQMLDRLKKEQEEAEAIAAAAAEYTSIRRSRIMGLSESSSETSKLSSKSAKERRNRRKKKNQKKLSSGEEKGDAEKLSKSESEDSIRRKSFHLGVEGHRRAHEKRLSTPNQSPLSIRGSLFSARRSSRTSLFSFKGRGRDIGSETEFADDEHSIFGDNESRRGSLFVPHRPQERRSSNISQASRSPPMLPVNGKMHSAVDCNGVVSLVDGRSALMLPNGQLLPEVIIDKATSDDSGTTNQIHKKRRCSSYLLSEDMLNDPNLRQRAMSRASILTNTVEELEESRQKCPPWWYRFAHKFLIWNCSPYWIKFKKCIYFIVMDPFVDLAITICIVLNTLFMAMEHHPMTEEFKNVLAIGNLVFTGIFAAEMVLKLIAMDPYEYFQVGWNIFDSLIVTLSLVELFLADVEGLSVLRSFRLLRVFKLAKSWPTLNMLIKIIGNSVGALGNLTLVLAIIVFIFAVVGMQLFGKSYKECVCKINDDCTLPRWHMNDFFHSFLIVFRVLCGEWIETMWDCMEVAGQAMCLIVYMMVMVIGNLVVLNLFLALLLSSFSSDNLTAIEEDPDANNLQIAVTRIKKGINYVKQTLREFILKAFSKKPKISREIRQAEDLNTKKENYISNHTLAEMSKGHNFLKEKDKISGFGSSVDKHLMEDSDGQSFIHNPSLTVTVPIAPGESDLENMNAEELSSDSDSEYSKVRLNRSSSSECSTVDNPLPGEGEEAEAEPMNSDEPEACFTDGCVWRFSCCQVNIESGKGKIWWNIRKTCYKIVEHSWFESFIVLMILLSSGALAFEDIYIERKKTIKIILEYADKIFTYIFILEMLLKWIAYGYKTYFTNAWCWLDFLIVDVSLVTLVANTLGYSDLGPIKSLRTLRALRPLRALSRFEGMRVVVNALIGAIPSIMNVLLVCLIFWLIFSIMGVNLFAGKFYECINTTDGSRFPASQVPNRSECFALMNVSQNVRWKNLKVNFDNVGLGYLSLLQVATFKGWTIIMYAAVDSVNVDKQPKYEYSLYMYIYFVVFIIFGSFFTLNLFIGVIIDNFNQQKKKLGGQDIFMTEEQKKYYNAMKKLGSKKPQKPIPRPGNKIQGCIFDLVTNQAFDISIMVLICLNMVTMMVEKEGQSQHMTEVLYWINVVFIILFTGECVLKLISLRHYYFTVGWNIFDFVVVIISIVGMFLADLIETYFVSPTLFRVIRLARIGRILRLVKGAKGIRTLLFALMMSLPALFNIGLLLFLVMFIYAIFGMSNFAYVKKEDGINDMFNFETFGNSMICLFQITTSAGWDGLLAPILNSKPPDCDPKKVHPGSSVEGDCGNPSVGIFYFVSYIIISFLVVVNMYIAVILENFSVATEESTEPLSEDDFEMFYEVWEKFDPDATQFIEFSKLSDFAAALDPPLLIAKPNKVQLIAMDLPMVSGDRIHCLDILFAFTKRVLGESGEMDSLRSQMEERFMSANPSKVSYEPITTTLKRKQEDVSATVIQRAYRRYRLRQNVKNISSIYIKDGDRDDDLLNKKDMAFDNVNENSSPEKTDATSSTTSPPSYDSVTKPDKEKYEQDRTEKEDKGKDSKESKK

These substances were tested against human Nav1.7 (Homo sapiens, UniProt Q15858, W1161R). Conditions: read-out: Nav1.7 IC50.
Type: cell-based

Going from “GPQCQKWMQSCDRERKCCEGFVCTLWCRKKLW-COOH [NV1D3359]” to “GPQCQKWMQTCARERKCCEGFVCTLWCRKKLW-COOH [NV1D3363]”, the IC50 rises from 10.5 nM to 93.1 nM (8.9-fold). The first is the more potent here.

First: GPQCQKWMQTCDAERKCCEGFSCRLWCKKKLW-COOH [NV1D2972]
Second: GPQCQKWMQTCDAERKCCEGFSCTLWCKKKLW-COOH [NV1D2974]
The IC50 of the first is 2.8-fold lower: 34.1 nM for the first, 95.7 nM for the second.

First: GPQCQKWMQTCDAERKCCEGFVCRLWCKKKLWAPAPA-COOH [NV1D3252]
Second: GPQCQKWMQTCDAERKCCEGFVCRLWCKKKLWGGGGG-COOH [NV1D3254]
The IC50 of the first is 8.3-fold higher: 145 nM for the first, 17.5 nM for the second.

Compared with “GPQCQKWMQTCDAERKCCEGFVCRLWCRKKLW-COOH [NV1D3007]”, “GPQCQKWMQTCDAERKCCEGFVCTLWCKKKLW-COOH [NV1D2973]” is 3.2-fold higher in IC50: 29.6 nM for the first, 93.9 nM for the second.

Going from “GPQCQKWMQTCDAERKCCEGFVCTLWCRKKLW-COOH [NV1D3020]” to “GPQCQKWMQTCDAKRKCCEGFSCTLWCRKKLW-COOH [NV1D3533]”, the IC50 falls from 47.2 nM to 22.4 nM (2.1-fold). The second is the more potent here.

Going from “GPQCQKWMQTCDAKRKCCEGFVCRLWCKKKLW-COOH [NV1D3048]” to “GPQCQKWMQTCDAKRKCCEGFVCRLWCRKKLW-COOH [NV1D3052]”, the IC50 rises from 11.1 nM to 84.8 nM (7.6-fold).

Compared with “GPQCQKWMQTCDAKRKCCEGFVCTLWCKKKLW-COOH [NV1D3051]”, “GPQCQKWMQTCDANRKCCEGFVCRLWCKKKLW-COOH [NV1D3005]” is 2.3-fold lower in IC50: 17.9 nM for the first, 7.83 nM for the second. The second is the more potent here.

Compared with “GPQCQKWMQTCDANRKCCEGFVCRLWCRKKLW-COOH [NV1D3018]”, “GPQCQKWMQTCDANRKCCEGFVCTLWCKKKLW-COOH [NV1D3016]” is 2.7-fold higher in IC50: 9.79 nM for the first, 26.6 nM for the second. The first is the more potent here.

“GPQCQKWMQTCDANRKCCEGFVCTLWCRKKLW-COOH [NV1D3035]” and “GPQCQKWMQTCDARRKCCEGFVCRLWCRKKLW-COOH [NV1D3019]” are within 1.5-fold of each other in IC50: 32 nM for the first, 28.7 nM for the second.

“GPQCQKWMQTCDARRKCCEGFVCTLWCKKKLW-COOH [NV1D3017]” and “GPQCQKWMQTCDARRKCCEGFVCTLWCRKKLW-COOH [NV1D3036]” are within 1.5-fold of each other in IC50: 21.9 nM for the first, 17.2 nM for the second.

“GPQCQKWMQTCDEERKCCEGFVCTLWCRKKLW-COOH [NV1D3466]” and “GPQCQKWMQTCDREAKCCEGFVCTLWCRKKLW-COOH [NV1D3371]” are within 1.5-fold of each other in IC50: 108 nM for the first, 151 nM for the second.

Going from “GPQCQKWMQTCDREKKCCEGFVCTLWCRKKLW-COOH [NV1D3369]” to “GPQCQKWMQTCDREQKCCEGFVCTLWCRKKLW-COOH [NV1D3374]”, the IC50 rises from 20.4 nM to 114 nM (5.6-fold).

“GPQCQKWMQTCDRERACCEGFVCTLWCRKKLW-COOH [NV1D3378]” and “GPQCQKWMQTCDRERKCCAGFVCTLWCRKKLW-COOH [NV1D3386]” are within 1.5-fold of each other in IC50: 24.8 nM for the first, 33.6 nM for the second.

Going from “GPQCQKWMQTCDRERKCCDGFVCTLWCRKKLW-COOH [NV1D3387]” to “GPQCQKWMQTCDRERKCCEAFVCTLWCRKKLW-COOH [NV1D3393]”, the IC50 rises from 23.7 nM to 125 nM (5.3-fold).

First: GPQCQKWMQTCDRERKCCEDFVCTLWCRKKLW-COOH [NV1D3394]
Second: GPQCQKWMQTCDRERKCCEGFQCTLWCRKKLW-COOH [NV1D3400]
The IC50 of the first is 2.7-fold higher: 155 nM for the first, 57.3 nM for the second. The second is the more potent here.

“GPQCQKWMQTCDRERKCCEGFSCTLWCRKKLW-COOH [NV1D3398]” and “GPQCQKWMQTCDRERKCCEGFTCTLWCRKKLW-COOH [NV1D3399]” are within 1.5-fold of each other in IC50: 67.3 nM for the first, 47.3 nM for the second.

“GPQCQKWMQTCDRERKCCEGFVCRLWCKKKLW-COOH [NV1D3004]” and “GPQCQKWMQTCDRERKCCEGFVCRLWCRKKLW-COOH [NV1D3015]” are within 1.5-fold of each other in IC50: 6.23 nM for the first, 8.86 nM for the second.

“GPQCQKWMQTCDRERKCCEGFVCTLWCKKKLW-COOH [NV1D3014]” and “GPQCQKWMQTCDRERKCCEGFVCTLWCRAKLW-COOH [NV1D3403]” are within 1.5-fold of each other in IC50: 36.1 nM for the first, 28.3 nM for the second.

“GPQCQKWMQTCDRERKCCEGFVCTLWCRKALW-COOH [NV1D3410]” and “GPQCQKWMQTCDRERKCCEGFVCTLWCRKKLD-COOH [NV1D3419]” are within 1.5-fold of each other in IC50: 114 nM for the first, 80.9 nM for the second.

Going from “GPQCQKWMQTCDRERKCCEGFVCTLWCRKKLG-COOH [NV1D3439]” to “GPQCQKWMQTCDRERKCCEGFVCTLWCRKKLWAAAAA-COOH [NV1D3791]”, the IC50 falls from 112 nM to 61.8 nM (1.8-fold).

“GPQCQKWMQTCDRERKCCEGFVCTLWCRKKLWAPAPADGPWRKM-COOH [NV1D3513]” and “GPQCQKWMQTCDRERKCCEGFVCTLWCRKKLWAPAPAPAPAP-COOH [NV1D3527]” are within 1.5-fold of each other in IC50: 131 nM for the first, 169 nM for the second.

“GPQCQKWMQTCDRERKCCEGFVCTLWCRKKLWAPAPAPAPAPDGPWRKM-COOH [NV1D3512]” and “GPQCQKWMQTCDRERKCCEGFVCTLWCRKKLWAPAPAPAPAPYGRKKRRQRRR-COOH [NV1D3524]” are within 1.5-fold of each other in IC50: 116 nM for the first, 84.9 nM for the second.

First: GPQCQKWMQTCDRERKCCEGFVCTLWCRKKLWAPAPASPGARAF-COOH [NV1D3510]
Second: GPQCQKWMQTCDRERKCCEGFVCTLWCRKKLWAPAPAYGRKKRRQRRR-COOH [NV1D3525]
The IC50 of the first is 3-fold higher: 159 nM for the first, 52.3 nM for the second.

“GPQCQKWMQTCDRERKCCEGFVCTLWCRKKLWDGPWRKM-COOH [NV1D3514]” and “GPQCQKWMQTCDRERKCCEGFVCTLWCRKKLWFGQKASS-COOH [NV1D3517]” are within 1.5-fold of each other in IC50: 46.4 nM for the first, 58.5 nM for the second.

First: GPQCQKWMQTCDRERKCCEGFVCTLWCRKKLWGGGGG-COOH [NV1D3792]
Second: GPQCQKWMQTCDRERKCCEGFVCTLWCRKKLWQRFVTGHFGGLYPANG-COOH [NV1D3520]
The IC50 of the first is 2.8-fold lower: 25.3 nM for the first, 71.4 nM for the second.

Going from “GPQCQKWMQTCDRERKCCEGFVCTLWCRKKLWRRRRRRRRRRR-COOH [NV1D3523]” to “GPQCQKWMQTCDRERKCCEGFVCTLWCRKKLWSPGARAF-COOH [NV1D3511]”, the IC50 rises from 44.7 nM to 71.5 nM (1.6-fold). The first is the more potent here.

Going from “GPQCQKWMQTCDRERKCCEGFVCTLWCRKKLWYGRKKRRQRRR-COOH [NV1D3526]” to “GPQCQKWMQTCDRERKCCEGFVCTLWCRKQLW-COOH [NV1D3413]”, the IC50 rises from 15.4 nM to 164 nM (11-fold).

“GPQCQKWMQTCDRERKCCEGFVCTLWCRKRLW-COOH [NV1D3408]” and “GPQCQKWMQTCDRERKCCEGFVCTLWCRKSLW-COOH [NV1D3414]” are within 1.5-fold of each other in IC50: 94.8 nM for the first, 102 nM for the second.

“GPQCQKWMQTCDRERKCCEGFVCTLWCRRKLW-COOH [NV1D3401]” and “GPQCQKWMQTCDRERKCCEGLVCTLWCRKKLW-COOH [NV1D3470]” are within 1.5-fold of each other in IC50: 45.5 nM for the first, 32.5 nM for the second.

First: GPQCQKWMQTCDRERKCCEKFVCTLWCRKKLW-COOH [NV1D3391]
Second: GPQCQKWMQTCDRERKCCEQFVCTLWCRKKLW-COOH [NV1D3396]
The IC50 of the first is 5.9-fold higher: 157 nM for the first, 26.4 nM for the second.

First: GPQCQKWMQTCDRERKCCESFVCTLWCRKKLW-COOH [NV1D3397]
Second: GPQCQKWMQTCDRERKCCETFVCTLWCRKKLW-COOH [NV1D3392]
The IC50 of the first is 1.8-fold lower: 66.7 nM for the first, 117 nM for the second.

“GPQCQKWMQTCDRERKCCGGFVCTLWCRKKLW-COOH [NV1D3467]” and “GPQCQKWMQTCDRERKCCKGFVCTLWCRKKLW-COOH [NV1D3384]” are within 1.5-fold of each other in IC50: 34.5 nM for the first, 46.8 nM for the second.

First: GPQCQKWMQTCDRERKCCQGFVCTLWCRKKLW-COOH [NV1D3388]
Second: GPQCQKWMQTCDRERKCCRGFVCTLWCRKKLW-COOH [NV1D3383]
The IC50 of the first is 2.2-fold lower: 13.5 nM for the first, 30.3 nM for the second.

“GPQCQKWMQTCDRERKCCSGFVCTLWCRKKLW-COOH [NV1D3389]” and “GPQCQKWMQTCDRERKCCTGFVCTLWCRKKLW-COOH [NV1D3385]” are within 1.5-fold of each other in IC50: 30.8 nM for the first, 41.5 nM for the second.

“GPQCQKWMQTCDRERQCCEGFVCTLWCRKKLW-COOH [NV1D3381]” and “GPQCQKWMQTCDRERRCCEGFVCTLWCRKKLW-COOH [NV1D3376]” are within 1.5-fold of each other in IC50: 12.2 nM for the first, 16.3 nM for the second.

“GPQCQKWMQTCDRERSCCEGFVCTLWCRKKLW-COOH [NV1D3382]” and “GPQCQKWMQTCDRERTCCEGFVCTLWCRKKLW-COOH [NV1D3377]” are within 1.5-fold of each other in IC50: 24.3 nM for the first, 36.4 nM for the second.

Same assay, conditions: read-out: hNav1.7 TETRA IC50

First: GPQCQKWMQTCDAERKCCEGLVCRLWCKKKLW-COOH [NV1D2893]
Second: GPQCQKWMQTCDAERKCCEGMVCRLWCKKKLW-COOH [NV1D2732]
The IC50 of the first is 1.7-fold lower: 75.5 ± 10.5 nM for the first, 126 ± 26.9 nM for the second. The first is the more potent here.
